{"sequences": {"note": "Sequences of proteins named here, by UniProt entry; tags and fusion partners are left off. Residues count along the entry.", "UniProt Q96KQ7, 913-1193 limits assumed": "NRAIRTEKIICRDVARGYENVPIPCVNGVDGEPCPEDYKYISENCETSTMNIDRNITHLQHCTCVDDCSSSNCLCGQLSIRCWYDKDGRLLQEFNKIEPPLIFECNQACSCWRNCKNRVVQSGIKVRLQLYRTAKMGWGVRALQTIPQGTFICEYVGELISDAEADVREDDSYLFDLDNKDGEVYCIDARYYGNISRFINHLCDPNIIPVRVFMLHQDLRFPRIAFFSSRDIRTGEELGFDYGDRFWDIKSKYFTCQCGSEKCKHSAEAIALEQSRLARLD", "UniProt Q9H9B1, whole entry": "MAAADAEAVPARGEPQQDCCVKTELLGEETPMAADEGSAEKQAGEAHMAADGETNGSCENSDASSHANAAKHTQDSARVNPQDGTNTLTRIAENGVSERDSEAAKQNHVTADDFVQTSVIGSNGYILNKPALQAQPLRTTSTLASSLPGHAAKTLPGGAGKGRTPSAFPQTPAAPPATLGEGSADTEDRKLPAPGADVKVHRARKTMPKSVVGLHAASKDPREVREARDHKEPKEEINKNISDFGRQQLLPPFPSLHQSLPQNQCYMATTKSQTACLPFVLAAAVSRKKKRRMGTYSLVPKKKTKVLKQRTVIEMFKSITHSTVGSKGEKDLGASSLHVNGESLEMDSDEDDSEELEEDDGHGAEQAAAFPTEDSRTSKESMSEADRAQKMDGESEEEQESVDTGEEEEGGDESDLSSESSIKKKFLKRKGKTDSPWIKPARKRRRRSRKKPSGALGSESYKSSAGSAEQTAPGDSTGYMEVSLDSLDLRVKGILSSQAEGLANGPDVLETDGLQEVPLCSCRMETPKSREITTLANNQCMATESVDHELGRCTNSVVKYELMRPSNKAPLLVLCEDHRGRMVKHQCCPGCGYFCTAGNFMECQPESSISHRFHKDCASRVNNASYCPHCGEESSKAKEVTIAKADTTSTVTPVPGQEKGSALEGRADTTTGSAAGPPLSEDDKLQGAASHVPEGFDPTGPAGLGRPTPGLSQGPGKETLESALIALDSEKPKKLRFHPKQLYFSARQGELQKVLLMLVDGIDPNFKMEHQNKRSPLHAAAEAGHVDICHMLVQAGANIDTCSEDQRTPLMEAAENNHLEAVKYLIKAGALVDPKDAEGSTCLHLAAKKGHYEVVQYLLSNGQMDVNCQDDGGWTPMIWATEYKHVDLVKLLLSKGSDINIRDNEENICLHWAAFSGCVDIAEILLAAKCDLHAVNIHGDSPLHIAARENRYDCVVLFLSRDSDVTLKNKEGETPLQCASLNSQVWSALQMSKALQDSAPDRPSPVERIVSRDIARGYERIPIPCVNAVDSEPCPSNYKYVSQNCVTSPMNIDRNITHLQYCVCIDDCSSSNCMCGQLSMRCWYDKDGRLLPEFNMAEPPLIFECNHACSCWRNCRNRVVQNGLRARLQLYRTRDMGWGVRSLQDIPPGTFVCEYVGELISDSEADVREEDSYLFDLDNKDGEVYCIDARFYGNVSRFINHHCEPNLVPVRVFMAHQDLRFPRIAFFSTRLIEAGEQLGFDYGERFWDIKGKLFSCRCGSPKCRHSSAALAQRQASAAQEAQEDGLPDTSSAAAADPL"}, "source": "patent US20200317642A1", "about": "“AMINE-SUBSTITUTED HETEROCYCLIC COMPOUNDS AS EHMT2 INHIBITORS AND DERIVATIVES THEREOF” (Epizyme, Inc., priority 2017, published 2020)", "key": {"human EHMT2 913-1193": {"target": "human EHMT2 913-1193 (Homo sapiens, UniProt Q96KQ7)", "experiment": "EHMT2 enzyme assay on histone peptide substrate", "conditions": "read-out: EHMT2 PEP (IC50 μM); Table 3; histone H3 1-15 peptide, balanced conditions", "text": "Recombinant purified human EHMT2 913-1193 ([…]) synthesized by Viva was used for all experiments. Biotinylated histone peptides were synthesized by Biopeptide and HPLC-purified to >95% purity. Streptavidin Flashplates and seals were purchased from PerkinElmer and 384 Well V-bottom Polypropylene Plates were from Greiner. ^3H-labeled S-adenosylmethionine (^3H-SAM) was obtained from American Radiolabeled Chemicals with a specific activity of 80 Ci/mmol. Unlabeled SAM and S-adenosylhomocysteine (SAH) were obtained from American Radiolabeled Chemicals and Sigma-Aldrich respectively. Flashplates were washed in a Biotek ELx-405 with 0.1% Tween. 384-well Flashplates and 96-well filter binding plates were read on a TopCount microplate reader (PerkinElmer). Compound serial dilutions were performed on a Freedom EVO (Tecan) and spotted into assay plates using a Thermo Scientific Matrix PlateMate (Thermo Scientific). Reagent cocktails were added by Multidrop Combi (Thermo Scientific).\n10-point curves of test compounds were made on a Freedom EVO (Tecan) using serial 3-fold dilutions in DMSO, beginning at 2.5 mM (final top concentration of compound was 50 t and the DMSO was 2%). […] 384-well Flashplates were read on a TopCount microplate reader (PerkinElmer)."}, "EHMT1": {"target": "EHMT1 (Homo sapiens, UniProt Q9H9B1)", "experiment": "EHMT1 PEP enzyme assay", "type": "biochemical", "conditions": "read-out: EHMT1 PEP (IC50 μM); Table 3"}, "[1]": {"test_system": "H3K9me2 in MDA-MB-231 cells", "experiment": "MDA-MB-231 H3K9me2 in-cell western assay (EHMT2 ICW)", "conditions": "read-out: EHMT2 ICW (IC50 μM), Table 3", "text": "MDA-MB-231 cell line was purchased from ATCC (Manassas, Va., USA). RPMI/Glutamax medium, Penicillin-Streptomycin, Heat Inactivated Fetal Bovine Serum, and D-PBS were purchased from Life Technologies (Grand Island, N.Y., USA). Odyssey blocking buffer, 800 CW goat anti-mouse IgG (H+L) antibody, and Licor Odyssey Infrared Scanner were purchased from Licor Biosciences, Lincoln, Nebr., USA. H3K9me2 mouse monoclonal antibody (Cat #1220) was purchased from Abcam (Cambridge, Mass., USA). 16% Paraformaldehyde was purchased from Electron Microscopy Sciences, Hatfield, Pa., USA). […]\nCompound (100 nL) was added directly to 384-well cell plate. […] Plates were allowed to dry at room temperature then imaged on a Licor Odyssey Infrared Scanner (Licor Biosciences) which measured integrated intensity at 700 nm and 800 nm wavelengths. […]\nFirst, the ratio for each well was determined by: […]\nThe average of the ratio values for each well was calculated and used to determine the percent inhibition for each test well in the plate. […] Percent inhibition was calculated as: […]\nIC50 curves were generated using triplicate wells per concentration of compound. […] IC50 values were calculated using a non-linear regression (variable slope-four parameter fit model) with by the following formula: […]"}}}
{"smiles": "CCc1ccc(Nc2nc(C)cc(NC)n2)cc1CNCCN1CCCC1", "values": [{"measurement": "IC50", "setting": "human EHMT2 913-1193", "value": "1 to 10", "unit": "µM"}, {"measurement": "IC50", "setting": "EHMT1", "value": "0.1 to 1", "unit": "µM"}, {"measurement": "IC50", "setting": "[1]", "value": "1 to 10", "unit": "µM"}]}
